Test results published in patent publication US9222059B2, “Cleaning formulations with improved surfactant solubility and methods of production and use thereof” (The Sun Products Corporation, priority 2011, dated 2015).

Experiment: Storage stability (Pass/Fail) of base liquid detergent formulation with 9.5% EMES plus candidate hydrotrope
Assay type: physicochemical
[1] = material 3.00 % w/v in base detergent with 9.5% EMES
[2] = material 4.00 % w/v in base detergent with 9.5% EMES
[3] = material 5.00 % w/v in base detergent with 9.5% EMES

OCCN(CCO)CCO
40° F. storage [1]: Fail | 105° F. storage [1]: Pass | 125° F. storage [1]: Pass | Freeze/Thaw storage [1]: Pass | Room Temp. storage [1]: Pass | 40° F. storage [2]: Fail | 105° F. storage [2]: Pass | 125° F. storage [2]: Pass | Freeze/Thaw storage [2]: Pass | Room Temp. storage [2]: Pass | 40° F. storage [3]: Fail | 105° F. storage [3]: Pass | 125° F. storage [3]: Pass | Freeze/Thaw storage [3]: Pass | Room Temp. storage [3]: Pass
